These results are taken from patent publication US9303023B2, “Pyrazole and imidazole derivatives useful as orexin antagonists” (ACTELION PHARMACEUTICALS LTD., priority 2011, dated 2016).

Sequences of proteins named here, by UniProt entry; tags and fusion partners are left off.
UniProt O43614, whole entry: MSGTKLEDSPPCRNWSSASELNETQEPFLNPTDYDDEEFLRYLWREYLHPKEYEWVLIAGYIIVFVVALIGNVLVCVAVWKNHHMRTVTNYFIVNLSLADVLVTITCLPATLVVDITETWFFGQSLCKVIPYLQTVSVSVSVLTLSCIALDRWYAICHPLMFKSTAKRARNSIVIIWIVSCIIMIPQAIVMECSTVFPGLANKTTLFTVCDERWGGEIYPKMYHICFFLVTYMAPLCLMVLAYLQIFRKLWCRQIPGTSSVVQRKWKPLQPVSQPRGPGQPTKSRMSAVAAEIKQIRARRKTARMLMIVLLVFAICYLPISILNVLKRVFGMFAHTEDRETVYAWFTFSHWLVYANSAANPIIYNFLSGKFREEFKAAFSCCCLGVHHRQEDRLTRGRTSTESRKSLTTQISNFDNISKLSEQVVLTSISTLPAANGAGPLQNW

The target of one assay is human orexin-2 receptor (Homo sapiens (Human), UniProt O43614). The experiment in a line: In vitro intracellular calcium measurements (FLIPR), antagonism of orexin-A response, OX2. The format is cell-based. To be noted: CHO cells expressing human orexin-2 receptor; 3 nM orexin-A; compound incubation time 120 min.
As for `COc1ccc2c(CCn3cc(NC(=O)c4ncoc4-c4cccc(C)c4)cn3)cn(C)c2c1` [Example 60, 5-m-Tolyl-oxazole-4-carboxylic acid {1-[2-(6-methoxy-1-methyl-1H-indol-3-yl)-ethyl]-1H-pyrazol-4-yl}-amide], the IC50 (as a rule, the point on the concentration scale where inhibition reaches its midpoint) was determined as 665 nM.

Turning to `Cc1cccc(-c2ocnc2C(=O)Nc2cnn(CCc3c[nH]c4ccc(F)cc34)c2)c1` [Example 62, 5-m-Tolyl-oxazole-4-carboxylic acid {1-[2-(5-fluoro-1H-indol-3-yl)-ethyl]-1H-pyrazol-4-yl}-amide], the IC50 is 98 nM.

For `COc1cccc2[nH]cc(CCn3cc(NC(=O)c4ncoc4-c4cccc(C)c4)cn3)c12` [Example 65, 5-m-Tolyl-oxazole-4-carboxylic acid {1-[2-(4-methoxy-1H-indol-3-yl)-ethyl]-1H-pyrazol-4-yl}amide], the IC50 is 111 nM. Consider `COc1ccc2[nH]cc(CCn3cnc(NC(=O)c4ncoc4-c4cccc(C)c4)c3)c2c1` [Example 66, 5-m-Tolyl-oxazole-4-carboxylic acid {1-[2-(5-methoxy-1H-indol-3-yl)-ethyl]-1H-imidazol-4-yl}-amide], for which the IC50 is 27 nM. For the compound `CCOc1cc(OC)nc(CCCn2cc(NC(=O)c3ncoc3-c3cccc(C)c3)cn2)n1` [Example 68, 5-m-Tolyl-oxazole-4-carboxylic acid {1-[3-(4-ethoxy-6-methoxy-pyrimidin-2-yl)-propyl]-1H-pyrazol-4-yl}-amide], the half-maximal inhibitory concentration (IC50) came to 84 nM. Turning to `COc1nc(OC)c2ccn(CCn3cc(NC(=O)c4ncoc4-c4cccc(C)c4)cn3)c2n1` [Example 80, 5-m-Tolyl-oxazole-4-carboxylic acid {1-[2-(2,4-dimethoxy-pyrrolo[2,3-d]pyrimidin-7-yl)-ethyl]-1H-pyrazol-4-yl}-amide], the IC50 came out at 94 nM. Still for that read-out and setting: in the case of `COc1cc2ccn(CCn3cc(NC(=O)c4ncoc4-c4cccc(C)c4)cn3)c2cn1` [Example 93, 5-m-Tolyl-oxazole-4-carboxylic acid {1-[2-(5-methoxy-pyrrolo[2,3-c]pyridin-1-yl)-ethyl]-1H-pyrazol-4-yl}-amide] it was 230 nM.

The same assay, now with this note: CHO cells expressing human orexin-2 receptor; 3 nM orexin-A; compound incubation time of 10 min (#).
Take `Cc1cccc(-c2ocnc2C(=O)Nc2cnn(CCOc3ccc4c(c3)OCO4)c2)c1` [Example 69, 5-m-Tolyl-oxazole-4-carboxylic acid {1-[2-(benzo[1,3]dioxo1-5-yloxy)-ethyl]-1H-pyrazol-4-yl}-amide]: the concentration for half-maximal inhibition (IC50) is 414 nM. Still for that read-out and setting: the same measure for `Cc1cccc(-c2ocnc2C(=O)Nc2cnn(CCSc3nc4ccccc4o3)c2)c1` [Example 70, 5-m-Tolyl-oxazole-4-carboxylic acid {1-[2-(benzooxazol-2-ylsulfanyl)-ethyl]-1H-pyrazol-4-yl}-amide]: 110 nM. Still for that read-out and setting: in the case of `Cc1cccc(-c2ocnc2C(=O)Nc2cnn(CCOc3ccc4nc(C)oc4c3)c2)c1` [Example 71, 5-m-Tolyl-oxazole-4-carboxylic acid {1-[2-(2-methyl-benzooxazol-6-yloxy)-ethyl]-1H-pyrazol-4-yl}-amide] it was 949 nM; in that of `Cc1cccc(-c2ocnc2C(=O)Nc2cnn(CCOc3cc(C(F)(F)F)n(C)n3)c2)c1` [Example 73, 5-m-Tolyl-oxazole-4-carboxylic acid {1-[2-(1-methyl-5-trifluoromethyl-1H-pyrazol-3-yloxy)-ethyl]-1H-pyrazol-4-yl)-amide], 1990 nM.

Take `Cc1cccc(-c2ocnc2C(=O)Nc2cnn(CCn3ccc4ccc(F)cc43)c2)c1` [Example 74, 5-m-Tolyl-oxazole-4-carboxylic acid {1-[2-(6-fluoro-indol-1-yl)-ethyl]-1H-pyrazol-4-yl}-amide]: the IC50 was found to be 67 nM.

In the case of `Cc1cccc(-c2ocnc2C(=O)Nc2cnn(CCn3ccc4cccc(F)c43)c2)c1` [Example 75, 5-m-Tolyl-oxazole-4-carboxylic acid {1-[2-(7-fluoro-indol-1-yl)-ethyl]-1H-pyrazol-4-yl}-amide], the half-inhibitory concentration (IC50) was 180 nM. Same read-out and setting: the same measure for `Cc1cccc(-c2ocnc2C(=O)Nc2cnn(CCn3ccc4cc(C)ccc43)c2)c1` [Example 77, 5-m-Tolyl-oxazole-4-carboxylic acid {1-[2-(5-methyl-indol-111)-ethyl]-1H-pyrazol-4-yl}-amide]: 204 nM; for `COc1ccnc2c1ccn2CCn1cc(NC(=O)c2ncoc2-c2cccc(C)c2)cn1` [Example 79, 5-m-Tolyl-oxazole-4-carboxylic acid {1-[2-(4-methoxy-pyrrolo[2,3-b]pyridin-1yl)-ethyl]-1H-pyrazol-4-yl}-amide]: 548 nM. Same read-out and setting: the same measure for `Cc1ccc(OCCn2cc(NC(=O)c3ncoc3-c3cccc(C)c3)cn2)nc1` [Example 81, 5-m-Tolyl-oxazole-4-carboxylic acid {1-[2-(5-methyl-pyridin-2-yloxy)-ethyl]-1H-pyrazol-4-yl)-amide]: 1850 nM; for `Cc1cccc(-c2ocnc2C(=O)Nc2cnn(CCOc3cccc(F)c3)c2)c1` [Example 82, 5-m-Tolyl-oxazole-4-carboxylic acid {1-[2-(3-fluoro-phenoxy)-ethyl]-1H-pyrazol-4-yl)-amide]: 931 nM.

As for `Cc1cccc(-c2ocnc2C(=O)Nc2cnn(CCOc3ccc(F)cc3)c2)c1` [Example 84, 5-m-Tolyl-oxazole-4-carboxylic acid {1-[2-(4-fluoro-phenoxy)-ethyl]-1H-pyrazol-4-yl)-amide], the concentration for half-maximal inhibition (IC50) was determined as 973 nM. The same measure, in the same setting: in the case of `Cc1cccc(-c2ocnc2C(=O)Nc2cnn(CCn3ccc4cccc(C)c43)c2)c1` [Example 85, 5-m-Tolyl-oxazole-4-carboxylic acid {1-[2-(7-methyl-indol-111)-ethyl]-1H-pyrazol-4-yl}-amide] it was 376 nM. Regarding `Cc1cccc(-c2ocnc2C(=O)Nc2cnn(CCOc3cccc(C)n3)c2)c1` [Example 87, 5-m-Tolyl-oxazole-4-carboxylic acid {1-[2-(6-methyl-pyridin-2-yloxy)-ethyl]-1H-pyrazol-4-yl)-amide], the half-inhibitory concentration (IC50) was 794 nM.

Turning to `Cc1cccc(-c2ocnc2C(=O)Nc2cnn(CCOc3cc(C)ccn3)c2)c1` [Example 90, 5-m-Tolyl-oxazole-4-carboxylic acid {1-[2-(4-methyl-pyridin-2-yloxy)-ethyl]-1H-pyrazol-4-yl)-amide], the 50% inhibitory concentration (IC50) stood at 2020 nM. In the case of `Cc1cccc(-c2ocnc2C(=O)Nc2cnn(CCn3ccc4ccc(Cl)nc43)c2)c1` [Example 91, 5-m-Tolyl-oxazole-4-carboxylic acid {1-[2-(6-chloro-pyrrolo[2,3-b]pyridin-1-yl)-ethyl]-1H-pyrazol-4-yl}-amide], the IC50 was determined as 108 nM. The same measure, in the same setting: the same measure for `COc1cc(OC)c2ccn(CCn3cc(NC(=O)c4ncoc4-c4cccc(C)c4)cn3)c2n1` [Example 92, 5-m-Tolyl-oxazole-4-carboxylic acid {1-[2-(4,6-dimethoxy-pyrrolo[2,3-b]pyridin-1-yl)-ethyl]-1H-pyrazol-4-yl}-amide]: 65 nM; for `COc1ncnc2c1ncn2CCn1cc(NC(=O)c2ncoc2-c2cccc(C)c2)cn1` [Example 94, 5-m-Tolyl-oxazole-4-carboxylic acid {1-[2-(6-methoxy-purin-9-yl)-ethyl]-1H-pyrazol-4-yl)-amide]: 1080 nM; for `COc1ncnc2ncn(CCn3cc(NC(=O)c4ncoc4-c4cccc(C)c4)cn3)c12` [Example 95, 5-m-Tolyl-oxazole-4-carboxylic acid {1-[2-(6-methoxy-purin-7-yl)-ethyl]-1H-pyrazol-4-yl)-amide]: 492 nM.
